Assay results as given in patent US6294153A, “Aerosol pharmaceutical formulation for pulmonary and nasal delivery” (Generex Pharmaceuticals, Inc., priority 1999, dated 2001).

What was measured:
[1] = From the text: (§1) The vials were then charged with a non-CFC tetrafluoroethane, (134a) propellant with the aid of a Pamasol 2008 semi-automatic gas filling equipment.
[2] = healthy volunteers
From the text: Day-1: 5 puffs of 2 units each (total 10 units)
Day-2: 5 puffs of 4 units each (total 20 units)
Day-1: 5 puffs of 6 units each (total 30 units)

[3] = remark: listed apart in the source
Experimental: as §1
The aerodynamic particle size was determined by 8-stage USP Anderson Cascade Impactor-Mark-II (trade mark). The Multistage Cascade Impactor was cleaned with methanol and air-dried at 30° C. Glass fibre filters were placed on the collection plates. Seals were aligned properly and the actuator was attached to the mouthpiece and assembled onto the USP induction port and jet stages. A vacuum pump was connected and air flow rate is set to 28.3 liter/min. The vial was primed by shaking for 10 seconds and actuating twice to waste. […] […] The filters were carefully removed and placed in scintillation vials and sonicated for 15 minutes.

[4] = stage 3, U400, 4 units/actuation
[5] = stage 4, U400, 4 units/actuation
[6] = stage 5, U400, 4 units/actuation
[7] = stage 6, U400, 4 units/actuation
[8] = stage 7, U400, 4 units/actuation
[9] = stage 8, U400, 4 units/actuation

insulin
Shot Weight ([1]; U400, 4 units per actuation, shot number 10): 0.078 g
Shot Weight ([1]; U400, 4 units per actuation, shot number 15): 0.083 g
Shot Weight ([1]; U400, 4 units per actuation, shot number 20): 0.076 g
Shot Weight ([1]; U400, 4 units per actuation, shot number 25): 0.079 g
Shot Weight ([1]; U400, 4 units per actuation, shot number 30): 0.070 g
Shot Weight ([1]; U600, 6 units per actuation, shot number 10): 0.17 g
Shot Weight ([1]; U600, 6 units per actuation, shot number 20): 0.18 g
Shot Weight ([1]; U600, 6 units per actuation, shot number 30): 0.182 g
Shot Weight ([1]; U600, 6 units per actuation, shot number 40): 0.174 g
Shot Weight ([1]; U600, 6 units per actuation, shot number 70): 0.177 g
Plasma insulin level ([2]; Day-1, 10 units (5 puffs of 2 units), 15 min): 56 pmol/L
Plasma insulin level ([2]; Day-1, 10 units (5 puffs of 2 units), 30 min): 89 pmol/L
Plasma insulin level ([2]; Day-1, 10 units (5 puffs of 2 units), 45 min): 119 pmol/L
Plasma insulin level ([2]; Day-1, 10 units (5 puffs of 2 units), 60 min): 160 pmol/L
Plasma insulin level ([2]; Day-1, 10 units (5 puffs of 2 units), 75 min): 160 pmol/L
Plasma insulin level ([2]; Day-1, 10 units (5 puffs of 2 units), 90 min): 142 pmol/L
Plasma insulin level ([2]; Day-1, 10 units (5 puffs of 2 units), 120 min): 78 pmol/L
Plasma insulin level ([2]; Day-1, 10 units (5 puffs of 2 units), 150 min): 62 pmol/L
Plasma insulin level ([2]; Day-1, 10 units (5 puffs of 2 units), 180 min): 37 pmol/L
Plasma insulin level ([2]; Day-1, 10 units (5 puffs of 2 units), time 0): 35 pmol/L
Plasma insulin level ([2]; Day-2, 20 units (5 puffs of 4 units), 15 min): 62 pmol/L
Plasma insulin level ([2]; Day-2, 20 units (5 puffs of 4 units), 30 min): 97 pmol/L
Plasma insulin level ([2]; Day-2, 20 units (5 puffs of 4 units), 45 min): 138 pmol/L
Plasma insulin level ([2]; Day-2, 20 units (5 puffs of 4 units), 60 min): 178 pmol/L
Plasma insulin level ([2]; Day-2, 20 units (5 puffs of 4 units), 75 min): 175 pmol/L
Plasma insulin level ([2]; Day-2, 20 units (5 puffs of 4 units), 90 min): 157 pmol/L
Plasma insulin level ([2]; Day-2, 20 units (5 puffs of 4 units), 120 min): 112 pmol/L
Plasma insulin level ([2]; Day-2, 20 units (5 puffs of 4 units), 150 min): 87 pmol/L
Plasma insulin level ([2]; Day-2, 20 units (5 puffs of 4 units), 180 min): 49 pmol/L
Plasma insulin level ([2]; Day-2, 20 units (5 puffs of 4 units), time 0): 38 pmol/L
Plasma insulin level ([2]; Day-3, 30 units (5 puffs of 6 units), 15 min): 72 pmol/L
Plasma insulin level ([2]; Day-3, 30 units (5 puffs of 6 units), 30 min): 112 pmol/L
Plasma insulin level ([2]; Day-3, 30 units (5 puffs of 6 units), 45 min): 178 pmol/L
Plasma insulin level ([2]; Day-3, 30 units (5 puffs of 6 units), 60 min): 202 pmol/L
Plasma insulin level ([2]; Day-3, 30 units (5 puffs of 6 units), 75 min): 190 pmol/L
Plasma insulin level ([2]; Day-3, 30 units (5 puffs of 6 units), 90 min): 173 pmol/L
Plasma insulin level ([2]; Day-3, 30 units (5 puffs of 6 units), 120 min): 141 pmol/L
Plasma insulin level ([2]; Day-3, 30 units (5 puffs of 6 units), 150 min): 92 pmol/L
Plasma insulin level ([2]; Day-3, 30 units (5 puffs of 6 units), 180 min): 67 pmol/L
Plasma insulin level ([2]; Day-3, 30 units (5 puffs of 6 units), time 0): 42 pmol/L
Particle size ([3]; stage 3, 2 units/actuation): 4.0 μm
Particle size [3, 4]: 3.8 μm
units/Actuation [3, 4]: 4.0 units/Actuation
Particle size ([3]; stage 4, 2 units/actuation): 3.8 μm
units/Actuation ([3]; stage 4, 2 units/actuation): 2.0 units/Actuation
Particle size [3, 5]: 3.3 μm
units/Actuation [3, 5]: 4.0 units/Actuation
Particle size ([3]; stage 5, 2 units/actuation): 3.0 μm
units/Actuation ([3]; stage 5, 2 units/actuation): 2.0 units/Actuation
Particle size [3, 6]: 3.0 μm
units/Actuation [3, 6]: 4.0 units/Actuation
Particle size ([3]; stage 6, 2 units/actuation): 2.1 μm
units/Actuation ([3]; stage 6, 2 units/actuation): 2.0 units/Actuation
Particle size [3, 7]: 2.0 μm
units/Actuation [3, 7]: 4.0 units/Actuation
Particle size ([3]; stage 7, 2 units/actuation): 1.0 μm
units/Actuation ([3]; stage 7, 2 units/actuation): 2.0 units/Actuation
Particle size [3, 8]: 1.0 μm
units/Actuation [3, 8]: 4.0 units/Actuation
Particle size ([3]; stage 8, 2 units/actuation): 0.7 μm
units/Actuation ([3]; stage 8, 2 units/actuation): 2.0 units/Actuation
Particle size [3, 9]: 0.6 μm
units/Actuation [3, 9]: 4.0 units/Actuation

Where two headings read alike, the source gives them in different places.
